Earlier results as cited in paper PMC4561054 (Drugs in R&D, 2015).

Details: cited from earlier work
[1] = severe renal impairment vs healthy, 1-μg/kg subcutaneous single dose

Row | Substance | Decreases in apparent clearance (renal impairment vs healthy, 1-μg/kg subcutaneous single dose) | Increase in AUC [1] | Increase in Cmax [1] | Reduction in clearance (ESRD on hemodialysis, package label)
1 | interferon-α2b: interferon studied in a single-dose pharmacokinetic study in renal impairment (ref 14: pegylated interferon-alpha2b) | up to 45% | 90% | 90% | 
2 | interferon-α2a: interferon largely metabolized by the liver; package label (Pegasys) |  |  |  | 25–45%
